This passage reports EC50 and Activity results from ChEMBL document CHEMBL4308853, “Design, Synthesis, and Pharmacological Evaluation of Novel β2/3 Subunit-Selective γ-Aminobutyric Acid Type A (GABAA) Receptor Modulators” (J Med Chem, 2018).

Chains of the proteins cited; added tags and fusions are not shown. Lines headed by an entry give the natural chain unless they say otherwise; changes in a name come on top. Residues count along the entry.
UniProt P14867, 28-456 limits assumed: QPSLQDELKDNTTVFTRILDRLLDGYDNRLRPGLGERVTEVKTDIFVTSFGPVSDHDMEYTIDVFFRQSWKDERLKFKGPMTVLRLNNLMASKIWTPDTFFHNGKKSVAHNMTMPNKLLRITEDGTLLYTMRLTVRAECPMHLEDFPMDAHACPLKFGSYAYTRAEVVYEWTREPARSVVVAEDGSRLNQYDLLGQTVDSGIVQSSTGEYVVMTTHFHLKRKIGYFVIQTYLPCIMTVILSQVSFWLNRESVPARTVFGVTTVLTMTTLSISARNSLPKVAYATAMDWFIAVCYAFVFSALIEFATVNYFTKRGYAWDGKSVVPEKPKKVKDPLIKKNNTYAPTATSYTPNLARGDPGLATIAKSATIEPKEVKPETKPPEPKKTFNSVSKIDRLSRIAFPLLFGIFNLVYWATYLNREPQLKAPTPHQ
UniProt P14867, 28-456 F316S limits assumed: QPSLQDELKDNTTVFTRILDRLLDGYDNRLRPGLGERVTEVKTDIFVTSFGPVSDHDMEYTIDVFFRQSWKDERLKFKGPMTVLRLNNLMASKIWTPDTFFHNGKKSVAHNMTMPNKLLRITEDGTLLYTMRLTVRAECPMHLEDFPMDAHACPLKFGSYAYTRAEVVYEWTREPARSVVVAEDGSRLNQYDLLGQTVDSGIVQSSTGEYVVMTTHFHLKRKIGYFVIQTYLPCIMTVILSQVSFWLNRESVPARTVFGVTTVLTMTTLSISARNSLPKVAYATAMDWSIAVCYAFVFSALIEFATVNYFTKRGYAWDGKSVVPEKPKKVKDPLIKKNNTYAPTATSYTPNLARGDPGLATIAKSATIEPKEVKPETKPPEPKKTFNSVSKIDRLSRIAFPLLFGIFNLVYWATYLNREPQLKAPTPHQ
UniProt P18507, 40-475 limits assumed: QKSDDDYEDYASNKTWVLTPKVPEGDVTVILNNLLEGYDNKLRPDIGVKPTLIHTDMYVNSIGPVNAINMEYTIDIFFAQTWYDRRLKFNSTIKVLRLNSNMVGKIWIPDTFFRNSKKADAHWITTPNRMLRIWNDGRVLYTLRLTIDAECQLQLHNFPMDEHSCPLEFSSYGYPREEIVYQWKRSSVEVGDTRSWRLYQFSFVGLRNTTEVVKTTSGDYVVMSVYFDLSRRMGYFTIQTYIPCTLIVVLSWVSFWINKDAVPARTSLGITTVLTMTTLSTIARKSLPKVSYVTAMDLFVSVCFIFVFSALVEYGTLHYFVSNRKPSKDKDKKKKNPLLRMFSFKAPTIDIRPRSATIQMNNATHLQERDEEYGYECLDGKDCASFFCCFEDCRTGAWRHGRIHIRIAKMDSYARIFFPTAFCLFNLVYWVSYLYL
UniProt P28472, 26-473 limits assumed: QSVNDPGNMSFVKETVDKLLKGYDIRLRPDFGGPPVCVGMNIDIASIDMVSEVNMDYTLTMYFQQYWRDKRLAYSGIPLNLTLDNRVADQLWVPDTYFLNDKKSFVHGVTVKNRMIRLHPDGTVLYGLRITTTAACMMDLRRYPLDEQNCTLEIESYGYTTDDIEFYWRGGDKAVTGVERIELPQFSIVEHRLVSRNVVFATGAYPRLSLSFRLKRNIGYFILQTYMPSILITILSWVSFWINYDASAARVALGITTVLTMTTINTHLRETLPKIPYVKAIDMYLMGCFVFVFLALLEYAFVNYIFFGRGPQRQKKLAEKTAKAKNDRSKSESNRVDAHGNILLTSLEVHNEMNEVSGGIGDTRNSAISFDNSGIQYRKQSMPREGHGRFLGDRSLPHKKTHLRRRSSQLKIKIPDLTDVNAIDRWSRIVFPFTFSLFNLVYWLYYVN
UniProt P28472, 26-473 N290S limits assumed: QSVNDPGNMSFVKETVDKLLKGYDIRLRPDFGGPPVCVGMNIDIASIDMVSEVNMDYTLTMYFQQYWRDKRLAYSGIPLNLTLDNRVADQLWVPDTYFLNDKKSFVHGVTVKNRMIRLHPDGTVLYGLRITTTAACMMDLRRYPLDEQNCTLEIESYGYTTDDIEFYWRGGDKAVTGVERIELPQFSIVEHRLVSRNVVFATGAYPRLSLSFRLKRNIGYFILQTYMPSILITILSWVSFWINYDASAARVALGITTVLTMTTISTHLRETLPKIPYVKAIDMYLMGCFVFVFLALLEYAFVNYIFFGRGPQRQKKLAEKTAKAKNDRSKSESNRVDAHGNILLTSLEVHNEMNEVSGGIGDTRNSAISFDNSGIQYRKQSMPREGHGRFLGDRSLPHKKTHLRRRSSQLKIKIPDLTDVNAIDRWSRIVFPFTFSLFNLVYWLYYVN
UniProt P18505, 26-474 limits assumed: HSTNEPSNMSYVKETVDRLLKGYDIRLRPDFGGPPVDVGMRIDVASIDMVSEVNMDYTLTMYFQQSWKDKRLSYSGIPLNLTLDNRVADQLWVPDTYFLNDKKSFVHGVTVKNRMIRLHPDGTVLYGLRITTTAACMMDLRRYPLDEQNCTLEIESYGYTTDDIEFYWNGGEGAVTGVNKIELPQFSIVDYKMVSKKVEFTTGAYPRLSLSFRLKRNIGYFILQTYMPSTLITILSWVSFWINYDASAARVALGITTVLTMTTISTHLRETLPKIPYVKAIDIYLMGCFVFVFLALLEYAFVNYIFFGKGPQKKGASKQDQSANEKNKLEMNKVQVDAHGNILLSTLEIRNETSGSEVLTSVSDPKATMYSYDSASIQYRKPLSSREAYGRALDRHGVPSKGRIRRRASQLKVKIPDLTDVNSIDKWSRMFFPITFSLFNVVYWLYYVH
UniProt P18505, 26-474 S290N limits assumed: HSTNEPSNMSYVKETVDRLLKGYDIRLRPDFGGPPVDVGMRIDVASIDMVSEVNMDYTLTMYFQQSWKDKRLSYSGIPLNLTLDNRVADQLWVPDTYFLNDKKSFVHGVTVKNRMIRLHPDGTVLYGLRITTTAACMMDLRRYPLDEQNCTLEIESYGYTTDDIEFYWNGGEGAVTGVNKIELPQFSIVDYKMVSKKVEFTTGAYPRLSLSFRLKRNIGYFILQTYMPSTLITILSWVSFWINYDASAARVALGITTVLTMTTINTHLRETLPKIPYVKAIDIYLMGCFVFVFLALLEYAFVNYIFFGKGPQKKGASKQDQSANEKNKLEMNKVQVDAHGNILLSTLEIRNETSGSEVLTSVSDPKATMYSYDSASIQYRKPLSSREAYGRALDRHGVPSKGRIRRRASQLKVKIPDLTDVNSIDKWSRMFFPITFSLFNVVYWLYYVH
UniProt P47870, 26-512 limits assumed: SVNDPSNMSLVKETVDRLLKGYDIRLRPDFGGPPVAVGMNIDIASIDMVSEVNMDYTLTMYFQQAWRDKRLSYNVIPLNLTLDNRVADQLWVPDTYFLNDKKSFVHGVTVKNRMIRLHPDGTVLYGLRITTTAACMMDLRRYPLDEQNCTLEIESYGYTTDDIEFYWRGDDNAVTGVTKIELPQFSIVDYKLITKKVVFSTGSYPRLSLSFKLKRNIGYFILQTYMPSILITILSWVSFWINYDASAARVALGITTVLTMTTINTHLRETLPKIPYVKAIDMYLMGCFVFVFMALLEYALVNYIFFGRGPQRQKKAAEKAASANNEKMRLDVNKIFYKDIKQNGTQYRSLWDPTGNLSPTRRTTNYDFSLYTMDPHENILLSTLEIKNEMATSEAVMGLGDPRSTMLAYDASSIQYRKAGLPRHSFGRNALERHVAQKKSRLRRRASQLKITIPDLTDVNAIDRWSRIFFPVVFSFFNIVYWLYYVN

Data set [1] concerns the target GABA-A receptor; alpha-1/beta-3/gamma-2 (Homo sapiens, UniProt P14867+P18507+P28472).
Data set [2] addresses GABA A receptor alpha-1/beta-1/gamma-2 (Homo sapiens, UniProt P14867+P18507+P18505). It is filed as cell-based.
Data set [3] deals with GABA-A receptor; alpha-1/beta-2/gamma-2 (Homo sapiens, UniProt P14867+P47870+P18507).
Data set [4] concerns the target GABA-A receptor; alpha-1/beta-3/gamma-2 (Homo sapiens, UniProt P14867+P18507+P28472, N265S).
For data set [5], the target named is GABA A receptor alpha-1/beta-1/gamma-2 (Homo sapiens, UniProt P14867+P18507+P18505, S290N). It is filed as cell-based.
Data set [6] deals with GABA-A receptor; alpha-1/beta-3/gamma-2 (Homo sapiens, UniProt P14867+P18507+P28472, F289S).
The subject of data set [7] is Oocyte. In words: Induction of current in Xenopus laevis oocytes at 10 to 100 uM after 5 mins by two-microelectrode voltage clamp method. Type of data set: cell-based.

For orientation: EC50 means the concentration needed to bring the measured effect to its halfway point. For `CC(=C(C#N)C#N)c1ccc(Cl)cc1Cl`, the EC50 in data set [1] stood at 13 µM; in data set [2], 98 µM; in data set [3], 11 µM; in data set [4], 24 µM; in data set [5] it was 11 µM; in data set [6], 52 µM. The Activity entry in data set [7] was “Non-Toxic”.
